The values below come from patent publication EP0695544B1, “Hard gelatin capsules resistant to denaturation and the production thereof” (SHIONOGI & CO., LTD., priority 1994, dated 1996).

“Also recorded” adds a separate entry of the source.

The conditions of this data set: capsule shells stored without contact over 95 parts PEG 6000 + 5 parts scavenger, 60°C for a week; 2nd solution of JP12 (37 °C), observed after 5 to 6 minutes.

On to thiamine nitrate, for which the Solubility entry is on record as “completely prevented the decrease of the solubility; also recorded: soluble rapidly”.
